pIC50: −log10 of the molar value.
System: MCF7-ADR (resistant)
Assay: Cytotoxicity on tumour cell lines, MCF7-ADR (resistant)
Format: cell-based, Human
Details: exposure time 72 h

Compound	pIC50
CC(=O)O[C@H]1C(=O)[C@@]2(C)[C@H]([C@H](OC(=O)c3ccccc3)[C@]34OC(=S)O[C@H]3[C@H](OC(=O)[C@H](O)[C@H](CC(C)C)NC(=O)OC(C)(C)C)C(C)=C1C4(C)C)[C@]1(OC(C)=O)CO[C@@H]1C[C@@H]2O [Compound 5, 13-[(2R,3S)-3-tert-butoxycarbonyl-amino-2-hydroxy-3-isobutyl-propanoyl]-14β-hydroxybaccatine III 1,14-thiocarbonate]	7.74
CCCCCC(=O)N[C@@H](C=C(C)C)[C@@H](O)C(=O)O[C@@H]1C(C)=C2[C@@H](OC(C)=O)C(=O)[C@@]3(C)[C@H]([C@H](OC(=O)c4ccccc4)[C@@]4(OS(=O)O[C@@H]14)C2(C)C)[C@]1(OC(C)=O)CO[C@@H]1C[C@@H]3O (stereo partly drawn) [Compound 9, 13-[(2R,3S)-3-caproylamino-2-hydroxy-3-isobutenyl-propanoyl]-14β-hydroxybaccatine-III 1,14-sulfite]	7.80
CCCCCC(=O)N[C@@H](C=C(C)C)[C@@H](O)C(=O)O[C@@H]1C(C)=C2[C@@H](OC(C)=O)C(=O)[C@@]3(C)[C@H]([C@H](OC(=O)c4ccccc4)[C@@]4(OC(=N)O[C@@H]14)C2(C)C)[C@]1(OC(C)=O)CO[C@@H]1C[C@@H]3O [Compound 8, 13-[(2R,3S)-3-caproylamino-2-hydroxy-3-isobutenyl-propanoyl]-14β-hydroxybaccatine III 1,14-iminocarbonate]	7.68
